The values that follow are results of earlier work, collected in US7759312B2, “Delivery of dry formulations of octreotide” (priority 2005, dated 2010).

Series [1] relates to growth hormone, glucagon, and insulin.
The conditions of series [2]: patients with acromegaly; estimated.

“L-cysteinamide, D-phenylalanyl-L-cysteiny-L-phenylalanyl-D-tryptophyl-L-lysyl-L-threonyl-N-[2-hydroxy-1-(hydroxymethyl)propyl]-,cyclic(2→7)-disulfide; [Octreotide, L-cysteinamide, D-phenylalanyl-L-cysteiny-L-phenylalanyl-D-tryptophyl-L-lysyl-L-threonyl-N-[2-hydroxy-1-(hydroxymethyl)propyl]-,cyclic(2→7)-disulfide; [R—(R*,R*)]]”: the “potency as inhibitor of growth hormone, glucagon, and insulin relative to somatostatin” value in series [1] is “even more potent inhibitor”. In addition, the “volume of distribution (Vdss)” value in series [2] is 21.6 ± 8.5 L.
